Rows were chosen to be rich in hits. Some 2.3% of all compounds tested hit in one or more screens of this group.
ARFGAP1 inhibitor: inhibitors of rat ARFGAP1 GAP activity, primary screen, biochemical, fluorescence polarization, GDP tracer; ADP-ribosylation factor GTPase-activating protein 1 (Rattus norvegicus), Q62848; Arfgap1-stimulated ARF1 GTP hydrolysis, GDP FP detection; inhibition, % at 16.5 µM; 360,000 compounds, 0.26% hits; AID 651572, 2012;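 active = inhibition above a per-plate limit, mean inhibition of low control wells plus 3 SD, cut at about 25% in these data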
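Material: rat Arfgap1 GAP domain (His6, aa 1-136), purified enzyme. Also added: human ARF1(Δ1-17)-GTP substrate. Compound dosing: 16.5 µM single point, 1.26% DMSO. Timing: enzyme reaction 120 min at 25 °C after 20 min preincubation. Signal: GDP detection by fluorescence polarization. Read-out basis: percent inhibition of GAP-stimulated GDP formation, scaled between DMSO and no-Arfgap1 medians.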
ASAP1 GAP inh: inhibitors of human ASAP1 ArfGAP activity, primary screen, biochemical, fluorescence polarization; ASAP1-stimulated ARF1 GTP hydrolysis, GDP FP detection; inhibition, % at 16.5 µM; 360,000 compounds, 0.19% hits; in the data active = inhibition above about 25%
MC4R barr agon: MC4R agonists recruiting beta-arrestin, primary screen, cell-based, luminescence, agonist arm of biased-ligand search | U2OS MC4R beta-arrestin complementation; percent of melanotan II response, DMSO zero | activation, % at 8.9 µM | 360,000 compounds, 0.98% hits;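 active = activation above a per-plate cutoff, the mean activation of sample wells on that plate plus 3 SD, cut at about 8% in these data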
CendR NRP1 mod: modulators of CendR peptide binding to NRP-1, primary screen, biochemical, fluorescence polarization, uHTS | Neuropilin-1 (Homo sapiens), O14786 | 360,000 compounds, 0.85% hits | AID 602438, 2012 | FAM-RPARPAR peptide binding to NRP-1 | inhibition, % at 25 µM;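 active = inhibition or corrected inhibition above about 18%, plus a signal ratio from 0.5 to 1.5, limit read from the data, passing the limit was not always enough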
Yeast UUG start-1: alters start codon recognition fidelity in yeast. S. cerevisiae UUG-firefly luciferase reporter, luminescence/redox ratio. 350,000 tested, 0.13% active. activity score, % at 18.7 µM. AID 602363;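 active means replicate mean at a twofold rise or more, about +100% in these data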;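 further: firefly luciferase made from a UUG start codon reports start codon fidelity; reporter light over untreated wells divided by growth signal over untreated wells; some hits fall short of that in this replicate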
MC4R antagonist: MC4R antagonists of cAMP signaling, primary screen, cell-based, TR-FRET, antagonist arm of biased-ligand search | MC4R-expressing cells, MTII-stimulated cAMP, LANCE TR-FRET | inhibition, % at 6.5 µM | 360,000 compounds, 0.48% hits;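 active = inhibition above its plate's cutoff, the mean of tested wells on that plate plus 3 SD, cut at about 29% in these data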
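Test system: U2OS cells stably expressing human melanocortin 4 receptor (MC4R); also added: Melanotan II challenge; compound: 6.5 µM single dose; timing: 30-min compound preincubation, 1-h Melanotan II challenge, 1-h detection, room temperature; signal: Eu-cAMP/anti-cAMP TR-FRET, emission 671 nm; repeats: one well per compound, no replicates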
Yeast UUG start-2: enhancers of UUG start codon usage in yeast, dose response, S. cerevisiae, UUG firefly luciferase, cherry-pick, set 2; AID 652061, 2013; 540 tested, under 10 active; shares compounds with Yeast UUG start-1; luminescence, 4 h; 100% means double the DMSO signal; activation, % at 38 µM;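 active = signal increase whose fitted curve reaches an absolute level of 40 at a concentration under 10 µM; inactive = activity opposite to the expected increase, or the rest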
Numbers stand for hits; i = inactive; nt = no result given.

Chains of the proteins cited; added tags and fusions are not shown.
ADP-ribosylation factor GTPase-activating protein 1 (Rattus norvegicus), Q62848, UniProt Q62848, whole entry, looked up: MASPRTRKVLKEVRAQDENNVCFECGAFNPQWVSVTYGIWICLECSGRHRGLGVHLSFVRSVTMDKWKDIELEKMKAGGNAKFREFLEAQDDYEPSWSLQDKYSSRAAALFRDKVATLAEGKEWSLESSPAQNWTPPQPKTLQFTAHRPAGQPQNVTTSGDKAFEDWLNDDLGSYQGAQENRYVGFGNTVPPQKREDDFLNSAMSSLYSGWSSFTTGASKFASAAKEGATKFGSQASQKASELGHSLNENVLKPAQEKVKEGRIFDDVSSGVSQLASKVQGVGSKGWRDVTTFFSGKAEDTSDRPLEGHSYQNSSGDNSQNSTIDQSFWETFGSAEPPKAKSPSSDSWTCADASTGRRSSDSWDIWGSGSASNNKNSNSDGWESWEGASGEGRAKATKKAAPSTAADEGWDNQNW
Neuropilin-1 (Homo sapiens), O14786, UniProt O14786, whole entry, looked up: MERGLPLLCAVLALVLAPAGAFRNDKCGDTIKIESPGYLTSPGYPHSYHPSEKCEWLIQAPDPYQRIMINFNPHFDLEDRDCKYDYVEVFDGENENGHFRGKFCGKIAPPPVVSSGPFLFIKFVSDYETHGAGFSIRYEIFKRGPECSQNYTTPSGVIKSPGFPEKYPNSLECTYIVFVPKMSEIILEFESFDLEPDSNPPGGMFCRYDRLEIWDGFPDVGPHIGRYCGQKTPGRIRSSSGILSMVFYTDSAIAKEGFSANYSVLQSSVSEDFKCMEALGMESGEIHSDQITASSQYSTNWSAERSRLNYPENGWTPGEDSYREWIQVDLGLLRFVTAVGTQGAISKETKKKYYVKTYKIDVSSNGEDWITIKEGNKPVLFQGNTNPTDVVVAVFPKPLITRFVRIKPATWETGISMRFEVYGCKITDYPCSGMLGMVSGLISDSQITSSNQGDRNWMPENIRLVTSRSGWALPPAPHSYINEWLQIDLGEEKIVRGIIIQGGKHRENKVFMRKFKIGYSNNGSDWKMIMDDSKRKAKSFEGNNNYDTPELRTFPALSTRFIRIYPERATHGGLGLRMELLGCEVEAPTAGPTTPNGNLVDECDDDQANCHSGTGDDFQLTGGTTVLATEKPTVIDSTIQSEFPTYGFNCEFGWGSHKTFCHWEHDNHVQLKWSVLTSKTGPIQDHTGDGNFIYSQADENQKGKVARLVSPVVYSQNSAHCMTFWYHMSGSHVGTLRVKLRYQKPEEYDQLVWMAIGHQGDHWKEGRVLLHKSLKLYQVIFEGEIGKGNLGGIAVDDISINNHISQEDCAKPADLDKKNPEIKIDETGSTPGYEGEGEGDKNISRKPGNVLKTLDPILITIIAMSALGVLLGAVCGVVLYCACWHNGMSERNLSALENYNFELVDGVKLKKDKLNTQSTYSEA

SMILES	ARFGAP1 inhibitor	ASAP1 GAP inh	MC4R barr agon	CendR NRP1 mod	Yeast UUG start-1	MC4R antagonist	Yeast UUG start-2
O=C(CN1CCOCC1)N1CCN(c2ccc([N+](=O)[O-])cc2)CC1	i	i	i	i	nt	i	i
O=C(Nc1cnc2ccccc2c1)N1CCOCC1	i	i	i	i	105	i	i
O=C(Nc1cnc2ccccc2c1)N1CCCCC1	i	i	i	i	nt	i	nt
Cc1ccc(S(=O)(=O)Nc2cccc3c2O[C@@H](CN(C)C(=O)Nc2c(C)noc2C)[C@H](C)CN([C@H](C)CO)C3=O)cc1	nt	nt	nt	nt	i	nt	nt
COc1ccc(S(=O)(=O)N2CCN(CCCOc3ccc(F)cc3)CC2)cc1OC	i	i	i	i	303	i	i
COc1ccc(S(=O)(=O)N2CCN(c3ccc(F)cc3)CC2)cc1OC	i	i	i	i	i	i	nt
CO[C@@H]1CN(C)C(=O)c2ccc(NC(=O)c3nc4ccccc4s3)cc2OC[C@@H](C)N(Cc2ccncc2)C[C@@H]1C	nt	nt	nt	nt	i	nt	nt
CO[C@@H]1CN(C)C(=O)c2ccc(NC(=O)Nc3c(C)noc3C)cc2OC[C@H](C)N(C)C[C@@H]1C	nt	nt	nt	nt	69	nt	i
CCCC(=O)Nc1ccc2c(c1)C(=O)N(C)C[C@@H](OC)[C@H](C)CN(S(=O)(=O)c1cn(C)cn1)[C@@H](C)CO2	nt	nt	nt	nt	134	nt	i
CO[C@H]1CN(C)C(=O)c2ccc(NC(=O)c3nc4ccccc4s3)cc2OC[C@H](C)N(Cc2ccncc2)C[C@H]1C	nt	nt	nt	nt	173	nt	i
CO[C@@H]1CN(C)C(=O)c2ccc(NC(=O)C3CCOCC3)cc2OC[C@@H](C)N(C(C)=O)C[C@H]1C	nt	nt	nt	nt	147	nt	i
C[C@@H]1CN([C@H](C)CO)C(=O)Cc2cc(N(C)C)ccc2O[C@@H]1CN(C)S(=O)(=O)c1cn(C)cn1	nt	nt	nt	nt	i	nt	nt
COc1ccccc1CNC(=O)C[C@@H]1CC[C@H](NC(=O)CC2CC2)[C@H](CO)O1	nt	nt	nt	nt	i	nt	nt
O=C(CN1CCOCC1)N[C@H]1CC[C@H](CCNC(=O)C2CCCCC2)O[C@H]1CO	nt	nt	nt	nt	i	nt	nt
CC(C)N(C[C@H]1[C@H](c2ccccc2)[C@@H](CO)N1S(C)(=O)=O)C(=O)CN(C)C	nt	nt	nt	nt	164	nt	i
CC(C)N(C[C@H]1[C@H](c2ccccc2)[C@H](CO)N1S(C)(=O)=O)C(=O)CN(C)C	nt	nt	nt	nt	i	nt	nt
O=C(CN1C(=O)c2ccccc2S1(=O)=O)c1ccc(O)c(O)c1	i	i	i	i	165	i	i
O=C(CN1C(=O)c2ccccc2S1(=O)=O)c1ccc(F)c(F)c1	i	i	i	i	i	i	nt
COC1(OC)C(/C=C/c2ccc(C)cc2)C(C#N)(C#N)C1(OC)OC (stereo unspecified)	i	i	i	i	549	i	i
CCCc1cc(=O)[nH]c(SCC(=O)c2cc(C)n(-c3cc(C)on3)c2C)n1	i	i	i	i	nt	i	i
Cc1cc(-n2c(C)cc(C(=O)CSc3nc(N)cc(=O)[nH]3)c2C)no1	i	i	i	i	i	i	i
C[C@@H]1CCCCO[C@H](CN(C)C(=O)Cc2ccccc2)[C@@H](C)CN([C@@H](C)CO)C(=O)c2cc(NS(=O)(=O)c3ccccc3)ccc2O1	nt	nt	nt	nt	i	nt	nt
O=C(Cc1ccccc1F)Nc1ccccc1-c1ccccc1	i	i	i	i	nt	i	nt
O=C(Cc1c(F)cccc1Cl)Nc1ccccc1-c1ccccc1	i	i	i	i	540	i	i
NCCCC[C@@H]1NC(=O)[C@H](CCC(=O)O)NC(=O)c2cc([N+](=O)[O-])cc(I)c2SC[C@@H](C(=O)NCC(N)=O)NC1=O	i	i	i	i	119	i	i
SMILES	ARFGAP1 inhibitor	ASAP1 GAP inh	MC4R barr agon	CendR NRP1 mod	Yeast UUG start-1	MC4R antagonist	Yeast UUG start-2
CN(C[C@H]1[C@H](c2ccccc2)[C@@H](CO)N1C(=O)c1ccccc1)C(=O)C1CC1	nt	nt	nt	nt	156	nt	i
C[C@H](CO)N1C[C@H](C)[C@H](CN(C)Cc2ccccc2)Oc2ncc(C3=CCCC3)cc2C1=O	nt	nt	nt	nt	i	nt	nt
C[C@@H]1CN([C@H](C)CO)C(=O)c2cc(-c3cncnc3)cnc2O[C@@H]1CN(C)C(=O)Cc1cccnc1	nt	nt	nt	nt	i	nt	nt
CCN(CC)CC#CC(O)(c1ccccc1)c1ccccc1	i	i	i	i	nt	i	i
CCN(CC)CC#CCC(O)(c1ccccc1)C1CCCC1 (stereo unspecified)	i	i	i	i	i	i	nt
CCN(CC)CC#CCC(OC)(c1ccccc1)c1ccccc1	i	i	i	i	nt	i	i
Cc1noc(C)c1S(=O)(=O)Nc1cccc2c1O[C@H](CN(C)S(=O)(=O)c1ccc(Cl)cc1)[C@H](C)CN([C@H](C)CO)C2=O	nt	nt	nt	nt	i	nt	nt
COc1ccc(S(=O)(=O)Nc2ccc3c(c2)C(=O)N([C@@H](C)CO)C[C@@H](C)[C@@H](CN(C)C(=O)Nc2cccc4ccccc24)OCCCC[C@H](C)O3)cc1	nt	nt	nt	nt	i	nt	nt

High-throughput results (PubChem)
